Source: patent EP0356137A2 (priority 1988, dated 1990)

Test system: tubulin
Conditions: 5 µM

COc1c(OC(=O)c2ccccc2)cc2c(c1OC)-c1ccc(SC)c(=O)cc1[C@@H](NC(C)=O)CC2 [3-benzoyl-3-demethylthiocolchicine]
Inhibition of [³H]colchicine binding % inhibition: 19%
